{"source": "patent US20240376218A1", "about": "(published 2024)", "biological_target": "human CCR8 (human, UniProt P51685)", "assay": "cell-based or functional assay", "data": [{"binder": "TPP-27478 (antibody, human IgG1, lambda) heavy: EVQLLESGGGLVQPGGSLRLSCAASGFTFSSYGMHWVRQAPGKGLEWVSAINWNGGSTGYADSVKGRFTISRDNSKNTLYLQMNSLRAEDTAVYYCARGHHSGYDGRFFDYWGQGTLVTVSSASTKGPSVFPLAPSSKSTSGGTAALGCLVKDYFPEPVTVSWNSGALTSGVHTFPAVLQSSGLYSLSSVVTVPSSSLGTQTYICNVNHKPSNTKVDKKV[here human IgG1 Fc without letters] light: QSVLTQPPSASGAPGQRVTISCTGSSSNIGAGYNVHWYQQLPGTAPKLLIYTNNRRPSGVPDRFSGSKSGTSASLAISGLRSEDEADYYCAAWDASLSGWVFGGGTKLTVLGQPKAAPSVTLFPPSSEELQANKATLVCLISDFYPGAVTVAWKADSSPVKAGVETTTPSKQSNNKYAASSYLSLTPEQWKSHRSYSCQVTHEGSTVEKTVAPTECS", "values": [{"measurement": "ADCP Max Response (%), Incucyte live-imaging; human CCR8-HEK target cells, M2c macrophages as effector cells", "result": 10.9, "unit": "%"}]}]}
